Results on 1 compound are retold here after US20210094899A1, “ACRYLIC ACID ANALOGS” (Recurium IP Holdings, LLC, priority 2017, published 2021).

The chains behind the UniProt entries cited, without tags or fusion partners.
UniProt P03372, whole entry: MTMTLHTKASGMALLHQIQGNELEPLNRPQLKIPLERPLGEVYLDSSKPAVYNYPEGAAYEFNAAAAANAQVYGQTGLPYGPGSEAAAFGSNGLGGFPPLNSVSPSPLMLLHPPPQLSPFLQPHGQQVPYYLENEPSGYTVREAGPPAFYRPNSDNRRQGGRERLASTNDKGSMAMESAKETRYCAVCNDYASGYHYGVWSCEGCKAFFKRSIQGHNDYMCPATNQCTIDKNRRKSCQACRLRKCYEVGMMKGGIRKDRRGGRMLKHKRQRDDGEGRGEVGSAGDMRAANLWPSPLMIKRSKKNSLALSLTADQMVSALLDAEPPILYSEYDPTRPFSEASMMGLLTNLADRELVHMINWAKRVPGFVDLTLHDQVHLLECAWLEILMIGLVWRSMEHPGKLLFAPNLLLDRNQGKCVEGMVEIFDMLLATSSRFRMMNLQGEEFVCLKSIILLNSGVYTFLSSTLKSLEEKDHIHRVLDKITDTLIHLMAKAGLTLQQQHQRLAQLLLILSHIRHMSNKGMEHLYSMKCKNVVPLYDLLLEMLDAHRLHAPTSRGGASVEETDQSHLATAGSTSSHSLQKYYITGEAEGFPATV

Structures are written as SMILES.

The assay has as its target T1, ERα (ESR1 protein) (Homo sapiens, UniProt P03372).
T1 construct: After incubating cells with the indicated compounds for 18-24 hours, cell lysates were prepared; endogenous in cells; host or cells: MCF-7
Briefly: ERα EC50 determination (Western blot band density, MCF-7 cells). The class given is cell-based. An excerpt:
A DMSO control was included to enable a determination of the relative efficacy of test compounds. […] The protein concentration was quantified using BCA kit.
(Immunoblotting shows a protein as a band on a membrane.)

A word on the EC50: it is the concentration needed to bring the measured effect to its halfway point. Take `C[C@@H]1Cc2c([nH]c3ccccc23)[C@@H](c2c(F)cc(/C=C/C(=O)O)cc2F)N1CC(C)(C)F` [AZD9496]: the EC50 is less than 25 nM.
